Source: publication PMC13070491, “Single-nucleus transcriptomics, pharmacokinetics, and pharmacodynamics of CDK4/6 and mTOR inhibition in a Phase 0/1 trial of recurrent high-grade glioma” (Neuro-Oncology, 2025)

System: GB126, GB239 and GB86 patient-derived cell lines
Test: In vitro single-cell RNA sequencing, analyses across the cell lines (pseudobulk differential gene expression, GSEA, non-cycling cells)
Assay type: cell-based, human
Procedure: Patient-derived glioma stem cell lines (GSCs; GB126, GB86, and GB239) were established from resected GBM tumor tissue. Cell lines were genetically profiled for mutations and copy number aberrations using the IvySeq custom gene panel. […] GB239 was derived from a tumor sample included in this Phase 0 trial (tumor sample: 100-0039). All human GSCs were cultured as described previously.[12]
Following the fifth day of drug exposure, cells were harvested, cryopreserved to be processed at a later point, or immediately processed for single-cell RNA sequencing (10x Genomics, 3’ version 3). The single-cell RNA sequencing data were then processed via cellranger count and Seurat. Briefly, cells were filtered out based on the following criteria: minimum number of genes detected >500 and <10 000 with a maximum percentage of mitochondrial genes set to 10%. Statistical assessment was made between the malignant proportions of each cell state using a 2-sided paired t-test.
Descriptive statistics of the clinical data are included in Table 1. Comparisons between groups were conducted using a 2-sided or paired 2-sided t-test, where indicated. P < .05 was considered significant. Multiple hypothesis test corrections (ie, false discovery rate correction) were applied for snRNAseq pseudobulk differential expression analysis.

CN(C)C(=O)c1cc2cnc(Nc3ccc(N4CCNCC4)cn3)nc2n1C1CCCC1 [ribo]
log2FoldChange (feature AL049749.1, ribociclib versus control (DMSO)): 1.309
log2FoldChange (feature AL049775.1, ribociclib versus control (DMSO)): 1.265
log2FoldChange (feature AL079307.1, ribociclib versus control (DMSO)): 1.03
log2FoldChange (feature AL117190.2, ribociclib versus control (DMSO)): 1.288
log2FoldChange (feature AL121894.3, ribociclib versus control (DMSO)): 1.155
log2FoldChange (feature AL121956.4, ribociclib versus control (DMSO)): 1.24
log2FoldChange (feature AL133268.4, ribociclib versus control (DMSO)): 1.034
log2FoldChange (feature AL139231.1, ribociclib versus control (DMSO)): 1.099
log2FoldChange (feature AL161851.2, ribociclib versus control (DMSO)): 1.142
log2FoldChange (feature AL161938.1, ribociclib versus control (DMSO)): 1.26
log2FoldChange (feature AL162253.1, ribociclib versus control (DMSO)): 1.134
log2FoldChange (feature AL162727.2, ribociclib versus control (DMSO)): 1.236
log2FoldChange (feature AL353626.1, ribociclib versus control (DMSO)): 1.253
log2FoldChange (feature AL353759.1, ribociclib versus control (DMSO)): 1.031
log2FoldChange (feature AL355612.1, ribociclib versus control (DMSO)): 1.03
log2FoldChange (feature AL355835.1, ribociclib versus control (DMSO)): 1.0289
log2FoldChange (feature AL356108.1, ribociclib versus control (DMSO)): 1.29
log2FoldChange (feature AL356124.1, ribociclib versus control (DMSO)): 1.29
log2FoldChange (feature AL359220.1, ribociclib versus control (DMSO)): 1.062
log2FoldChange (feature AL359313.1, ribociclib versus control (DMSO)): 1.2467
log2FoldChange (feature AL392023.2, ribociclib versus control (DMSO)): 1.316
log2FoldChange (feature AL392024.1, ribociclib versus control (DMSO)): 1.047
log2FoldChange (feature AL449983.1, ribociclib versus control (DMSO)): 1.152
log2FoldChange (feature AL591686.2, ribociclib versus control (DMSO)): 1.253
log2FoldChange (feature AL592424.1, ribociclib versus control (DMSO)): 1.08
log2FoldChange (feature AL596218.1, ribociclib versus control (DMSO)): 1.151
log2FoldChange (feature AL603910.1, ribociclib versus control (DMSO)): 1.184
log2FoldChange (feature ANGPT1, ribociclib versus control (DMSO)): 1.06
log2FoldChange (feature ANXA10, ribociclib versus control (DMSO)): 1.251
log2FoldChange (feature AP000265.1, ribociclib versus control (DMSO)): 1.037
log2FoldChange (feature AP000357.2, ribociclib versus control (DMSO)): 1.309
log2FoldChange (feature AP000542.2, ribociclib versus control (DMSO)): 1.273
log2FoldChange (feature AP001407.1, ribociclib versus control (DMSO)): 1.218
log2FoldChange (feature LY96, ribociclib versus control (DMSO)): 1.105
log2FoldChange (feature MALL, ribociclib versus control (DMSO)): 1.189
log2FoldChange (feature MATN2, ribociclib versus control (DMSO)): 1.2
log2FoldChange (feature MEG3, ribociclib versus control (DMSO)): 1.185
log2FoldChange (feature METTL7B, ribociclib versus control (DMSO)): 1.1473
log2FoldChange (feature MIAT, ribociclib versus control (DMSO)): 1.0319
log2FoldChange (feature MIR2117HG, ribociclib versus control (DMSO)): 1.151
log2FoldChange (feature MMP15, ribociclib versus control (DMSO)): 1.023
log2FoldChange (feature MOG, ribociclib versus control (DMSO)): 1.104
log2FoldChange (feature MRO, ribociclib versus control (DMSO)): 1.154
log2FoldChange (feature MRVI1, ribociclib versus control (DMSO)): 1.161
log2FoldChange (feature NAALADL2-AS1, ribociclib versus control (DMSO)): 1.113
log2FoldChange (feature NAALADL2-AS2, ribociclib versus control (DMSO)): 1.246
log2FoldChange (feature NFAM1, ribociclib versus control (DMSO)): 1.039
log2FoldChange (feature NPR1, ribociclib versus control (DMSO)): 1.293
log2FoldChange (feature NR1H4, ribociclib versus control (DMSO)): 1.051
log2FoldChange (feature NTSR2, ribociclib versus control (DMSO)): 1.241
log2FoldChange (feature NXPE1, ribociclib versus control (DMSO)): 1.287
log2FoldChange (feature NYAP2, ribociclib versus control (DMSO)): 1.257
log2FoldChange (feature OAS1, ribociclib versus control (DMSO)): 1.149
log2FoldChange (feature P2RX6, ribociclib versus control (DMSO)): 1.241
log2FoldChange (feature PACRG-AS1, ribociclib versus control (DMSO)): 1.037
log2FoldChange (feature PACRG-AS3, ribociclib versus control (DMSO)): 1.079
log2FoldChange (feature PBXIP1, ribociclib versus control (DMSO)): 1.078
log2FoldChange (feature PCAT4, ribociclib versus control (DMSO)): 1.019
log2FoldChange (feature PCAT6, ribociclib versus control (DMSO)): 1.133
log2FoldChange (feature PCDH9-AS2, ribociclib versus control (DMSO)): 1.129
log2FoldChange (feature PCDH9-AS3, ribociclib versus control (DMSO)): 1.15
log2FoldChange (feature PCDHB12, ribociclib versus control (DMSO)): 1.05
log2FoldChange (feature PMP2, ribociclib versus control (DMSO)): 1.189
log2FoldChange (feature POLN, ribociclib versus control (DMSO)): 1.055
log2FoldChange (feature PON1, ribociclib versus control (DMSO)): 1.145
log2FoldChange (feature PSORS1C1, ribociclib versus control (DMSO)): 1.056
log2FoldChange (feature PTPN7, ribociclib versus control (DMSO)): 1.179
log2FoldChange (feature PTPN20, ribociclib versus control (DMSO)): 1.021
log2FoldChange (feature RGS11, ribociclib versus control (DMSO)): 1.045
log2FoldChange (feature RSPO4, ribociclib versus control (DMSO)): 1.105
log2FoldChange (feature RUFY4, ribociclib versus control (DMSO)): 1.322
log2FoldChange (feature SAMD9L, ribociclib versus control (DMSO)): 1.086
log2FoldChange (feature SCML4, ribociclib versus control (DMSO)): 1.059
log2FoldChange (feature SCN2B, ribociclib versus control (DMSO)): 1.253
log2FoldChange (feature SCN3A, ribociclib versus control (DMSO)): 1.19
log2FoldChange (feature SEMA4A, ribociclib versus control (DMSO)): 1.083
log2FoldChange (feature SEMG1, ribociclib versus control (DMSO)): 1.1288
log2FoldChange (feature SERPINI1, ribociclib versus control (DMSO)): 1.0367
log2FoldChange (feature SH2D6, ribociclib versus control (DMSO)): 1.22
log2FoldChange (feature SLC1A1, ribociclib versus control (DMSO)): 1.117
log2FoldChange (feature SLC13A1, ribociclib versus control (DMSO)): 1.102
log2FoldChange (feature SLC18A1, ribociclib versus control (DMSO)): 1.2151
log2FoldChange (feature SLC43A2, ribociclib versus control (DMSO)): 1.12
log2FoldChange (feature SLC46A2, ribociclib versus control (DMSO)): 1.146
log2FoldChange (feature SP140L, ribociclib versus control (DMSO)): 1.188
log2FoldChange (feature SRPK3, ribociclib versus control (DMSO)): 1.05
log2FoldChange (feature STAT6, ribociclib versus control (DMSO)): 1.158
log2FoldChange (feature STK32A, ribociclib versus control (DMSO)): 1.1342
log2FoldChange (feature STRA8, ribociclib versus control (DMSO)): 1.149
log2FoldChange (feature SULT1C4, ribociclib versus control (DMSO)): 1.049
log2FoldChange (feature TDO2, ribociclib versus control (DMSO)): 1.0307
log2FoldChange (feature TGM2, ribociclib versus control (DMSO)): 1.091
log2FoldChange (feature THBS2, ribociclib versus control (DMSO)): 1.159
log2FoldChange (feature TIE1, ribociclib versus control (DMSO)): 1.297
log2FoldChange (feature TLR7, ribociclib versus control (DMSO)): 1.197
log2FoldChange (feature TLR8-AS1, ribociclib versus control (DMSO)): 1.1345
log2FoldChange (feature TMEM246-AS1, ribociclib versus control (DMSO)): 1.08
log2FoldChange (feature TMOD1, ribociclib versus control (DMSO)): 1.051
log2FoldChange (feature TMPRSS11A, ribociclib versus control (DMSO)): 1.092
